Test results reported in ChEMBL document CHEMBL4619776, “Probing the Plasticity in the Active Site of Protein N-terminal Methyltransferase 1 Using Bisubstrate Analogues” (J Med Chem, 2020).
The source made the active and inactive calls. No cut-off for these calls is given here.

Columns and labels:
[1] = target: T1, N-terminal Xaa-Pro-Lys N-methyltransferase 1 (Homo sapiens) (UniProt Q9BV86); experiment: Inhibition of NTMT1 (unknown origin) assessed as residual enzyme activity level at => 0.3 uM pre-incubated for 120 mins before addition of 6 to 12 times Km concentrations of GPKRIA peptide substrate in presence of fixed concentration of SAM by SAHH coupled fluorescence assay relative to control
T1 sequence (whole entry): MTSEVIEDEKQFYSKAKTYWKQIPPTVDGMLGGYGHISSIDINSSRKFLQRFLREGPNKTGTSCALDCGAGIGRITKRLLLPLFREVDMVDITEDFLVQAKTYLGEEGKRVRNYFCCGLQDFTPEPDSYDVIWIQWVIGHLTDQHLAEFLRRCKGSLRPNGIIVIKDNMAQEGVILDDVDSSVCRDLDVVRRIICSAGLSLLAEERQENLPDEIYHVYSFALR

[2] = target: T1, N-terminal Xaa-Pro-Lys N-methyltransferase 1 (Homo sapiens); experiment: Inhibition of NTMT1 (unknown origin) assessed as residual enzyme activity level at => 0.3 uM pre-incubated for 120 mins before addition of 50 times Km concentrations of GPKRIA peptide substrate in presence of fixed concentration of SAM by SAHH coupled fluorescence assay relative to control
[3] = target: T1, N-terminal Xaa-Pro-Lys N-methyltransferase 1 (Homo sapiens); experiment: Inhibition of NTMT1 (unknown origin) pre-incubated for 120 mins before addition of fixed GPKRIA peptide substrate in presence of 6 to 25 times Km concentrations of SAM by SAHH coupled fluorescence assay relative to control
[4] = target: T1, N-terminal Xaa-Pro-Lys N-methyltransferase 1 (Homo sapiens); experiment: Sow and tight binding inhibition of NTMT1 (unknown origin) assessed as [enzyme]/Ki(app) ratio pre-incubated up to 120 mins before GPKRIA peptide substrate addition by SAHH coupled fluorescence assay based Morrison's quadratic equation analysis
[5] = organism: Homo sapiens; experiment: Selectivity for NTMT1 (unknown origin) over G9a (unknown origin)
[6] = organism: Homo sapiens; experiment: Selectivity for NTMT1 (unknown origin) over SETD7 (unknown origin)
[7] = organism: Homo sapiens; experiment: Selectivity for NTMT1 (unknown origin) over PRMT1 (unknown origin)
[8] = organism: Homo sapiens; experiment: Selectivity for NTMT1 (unknown origin) over PRMT3 (unknown origin)
[9] = organism: Homo sapiens; experiment: Selectivity for NTMT1 (unknown origin) over Trypanosoma brucei PRMT7
[10] = organism: Homo sapiens; experiment: Selectivity for NTMT1 (unknown origin) over NNMT (unknown origin)
[11] = organism: Homo sapiens; experiment: Selectivity for NTMT1 (unknown origin) over SAHH (unknown origin)
[12] = target: T1, N-terminal Xaa-Pro-Lys N-methyltransferase 1 (Homo sapiens); experiment: Inhibition of NTMT1 (unknown origin) pre-incubated for 120 mins before addition of 6 to 12 times Km concentrations of GPKRIA peptide substrate in presence of fixed concentration of SAM by SAHH coupled fluorescence assay

Compound	Activity [1]	Activity [2]	inhibition [3]	Ratio [4]	Selectivity ratio [5]	Selectivity ratio [6]	Selectivity ratio [7]	Selectivity ratio [8]	Selectivity ratio [9]	Selectivity ratio [10]	Selectivity ratio [11]	inhibition [12]
CC[C@H](C)[C@H](NC(=O)[C@H](CCCNC(=N)N)NC(=O)[C@H](CCCCN)NC(=O)[C@@H]1CCCN1C(=O)CNCCCN(CC[C@H](N)C(=O)O)C[C@H]1O[C@@H](n2cnc3c(N)ncnc32)[C@H](O)[C@@H]1O)C(=O)N[C@@H](C)C(N)=O	10%	20%	Active									
CC[C@H](C)[C@H](NC(=O)[C@H](CCCNC(=N)N)NC(=O)[C@H](CCCCN)NC(=O)[C@@H]1CCCN1C(=O)CNCCCCN(CC[C@H](N)C(=O)O)C[C@H]1O[C@@H](n2cnc3c(N)ncnc32)[C@H](O)[C@@H]1O)C(=O)N[C@@H](C)C(N)=O	10%	20%	Active	> 100	> 3000	> 3000	> 3000	> 3000	> 3000	> 3000	> 3000	Active
